From publication PMC3678023 (Journal of Molecular Biology, 2013)

By UniProt entry, the sequences of proteins in these tests, tags left out.
UniProt P31652, whole entry: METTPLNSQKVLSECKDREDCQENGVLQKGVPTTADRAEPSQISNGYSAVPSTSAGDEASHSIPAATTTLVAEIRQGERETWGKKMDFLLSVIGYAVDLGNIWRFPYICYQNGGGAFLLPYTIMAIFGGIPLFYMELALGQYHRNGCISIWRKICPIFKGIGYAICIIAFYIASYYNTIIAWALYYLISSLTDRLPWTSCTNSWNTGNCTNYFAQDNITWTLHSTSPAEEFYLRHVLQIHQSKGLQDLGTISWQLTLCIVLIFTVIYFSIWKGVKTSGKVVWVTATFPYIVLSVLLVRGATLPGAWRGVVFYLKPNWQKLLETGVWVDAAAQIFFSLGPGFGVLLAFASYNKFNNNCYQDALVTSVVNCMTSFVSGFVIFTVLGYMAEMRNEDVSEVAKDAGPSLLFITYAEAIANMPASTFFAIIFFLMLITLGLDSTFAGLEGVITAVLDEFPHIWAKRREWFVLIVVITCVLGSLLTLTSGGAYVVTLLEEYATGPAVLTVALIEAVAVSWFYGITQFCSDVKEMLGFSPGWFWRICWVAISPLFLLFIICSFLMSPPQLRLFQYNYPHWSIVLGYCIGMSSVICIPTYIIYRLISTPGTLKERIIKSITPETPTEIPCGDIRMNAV

Experiments:
wild-type SERT = wild-type SERT (Rattus norvegicus, UniProt P31652); test: biochemical
[1] = tested on: thermostabilised SERT mutants SAH6 and SAH7; test: Competition binding, statements covering both thermostabilised mutants; design: species or system rat; conditions: over SAH6 and SAH7

Row | Compound | Ki (wild-type SERT) [nM] | Lower affinity versus wild-type transporter [1]
1 | Fc1ccc([C@@H]2CCNC[C@H]2COc2ccc3c(c2)OCO3)cc1 [paroxetine] | 0.01 ± 0.02 | up to 90 fold
2 | CN(C)CCCN1c2ccccc2CCc2ccccc21 [imipramine] |  | up to 90 fold
3 | COC(=O)[C@H]1[C@@H](OC(=O)c2ccccc2)C[C@@H]2CC[C@H]1N2C [cocaine] | 1560 ± 21 | 
